Assay results taken from patent publication US20240344035A1, “Culture Medium and Culture Method for Human Primary Acute Myeloid Leukemia Cells” (PRECEDO PHARMACEUTICALS CO., LTD, priority 2021, published 2024).

Assays:
Assay type in all cases: cell-based
[1] = test system: human primary acute myeloid leukemia cells; experiment: Effect of single added factors in Basal Medium on proliferation (CCK-8); design: key: +: compared with the Basal Medium, the culture medium added with the additive can promote the proliferation of two cases of human primary acute myeloid leukemia cells isolated from human primary acute myeloid leukemia bone marrow samples; −: the culture medium added with the additive can promote the proliferation of at least one case of human primary acute myeloid leukemia cells isolated from human primary acute myeloid leukemia bone marrow samples; ∘: the medium added with the additive has no significant effect on the proliferation of at least two cases of human primary acute myeloid leukemia cells isolated from human primary acute myeloid leukemia bone marrow samples; conditions: additive at the listed final concentration in Basal Medium; samples A17007, A25104; 5 to 8 days; CCK-8, 450 nm; versus Basal Medium
Method: First, the Basal Medium was prepared. The formulation of the Basal Medium was monocyte serum-free medium (purchased from BI, 05-080-1A)+10% (v/v) fetal bovine serum (purchased from ExCell Bio, FND500)+100 μg/mL Primocin (purchased from InvivoGen, 0.2% (v/v), the commercial product concentration is 50 mg/mL).
Different types of growth factors (see Table 1) were added to the Basal Medium to prepare culture mediums for human primary acute myeloid leukemia cells containing different added components.
The culture mediums of different compositions in Table 1 were added into a 96-well plate in a volume of 100 μL/well. Human primary acute myeloid leukemia cells isolated from two cases of human primary acute myeloid leukemia bone marrow samples (numbered A17007, A25104, from the First Affiliated Hospital of Anhui Medical University) according to the above step (2) were inoculated in the 96-well culture plate at a density of 1×10^4 cells/well and cultured at 37° C. and 5% […]. After 5 to 8 days of culture, the cells grew to 70% to 85%, and 10 μL of Cell Counting Kit-8 (CCK-8, purchased from MCE) was added to each well and incubated at 37° C. and 5% CO2 for 2 to 4 hours. The substances in each well were mixed, and the plate was read using a multifunctional microplate reader (Multi-Mode Detection Platform, American Molecular Instruments (Shanghai) Co., Ltd.) at 450 nm. […]

[2] = test system: human primary acute myeloid leukemia cells; experiment: Effect of combinations of added factors on proliferation (viable cell counting, FIG. 1); conditions: six bone marrow samples
Method: The culture mediums for human primary acute myeloid leukemia cells containing different combinations of added factors were prepared according to the components in Table 2, to investigate the proliferation-promoting effects of different added factor combinations on human primary acute myeloid leukemia cells.
Human primary acute myeloid leukemia cells were obtained from human primary acute myeloid leukemia bone marrow samples (numbered A17151, A17152, A20090, A20101, A21004, A20141) according to the process of step (2)-3 of Example 1. The obtained cell suspension was divided into 11 equal parts, which were then centrifuged at 1500 rpm for 4 minutes. After centrifugation, the cells were resuspended with 200 μL BM or No. 1 to 10 culture medium, respectively, and inoculated into a 48-well plate at a viable cell density of 2×10^4 cells/well (20,000 cells per well). Each well in the 48-well plate was supplemented to a volume of 1 mL with the corresponding culture mediums, and the resultant was fully mixed. After surface disinfection, the plate was placed in a 37° C., 5% CO2 incubator (purchased from Thermo Fisher) for culture.
The cells in the 48-well plate grew to more than 85% and were transferred to a 15 mL centrifuge tube which was then centrifuged at 1500 rpm for 5 minutes. 500 μL of monocyte serum-free medium was added to the centrifuge tube to resuspend the cell pellet. […]

[3] = test system: human primary acute myeloid leukemia cells; experiment: Proliferative effects of different concentrations of added factors (ratio to Blank Control, FIGS. 2A-2H)
Method: Human primary acute myeloid leukemia cells were obtained from human primary acute myeloid leukemia bone marrow samples (numbered A23065, A17112) according to the process of step (2)-3 of Example 1. The cells were resuspended with Basal Medium (monocyte serum-free medium+10% (v/v) fetal bovine serum+100 μg/mL Primocin) for later use.
Next, the factors with cell culture proliferation-promoting effect determined in Example 2 were added to the Basal Medium (prepared according to the No. 2 formulation of Example 2) to obtain a combined basal medium, and then the following 8 formulations of culture mediums were prepared for experiments. • Formulation 1: the combined basal medium without glutamine additive; • Formulation 2: the combined basal medium without human SCF; • Formulation 3: the combined basal medium without human IL-6; • Formulation 4: the combined basal medium without human IL-3; • Formulation 5: the combined basal medium without human FLT3L; • Formulation 6: the combined basal medium without non-essential amino acids; • Formulation 7: the combined basal medium without human IL-7; • Formulation 8: the combined basal medium without human M-CSF.
20 μl of cell suspension containing 4×10^4 cells was added to each well, and the suspension was diluted with 1 mL medium of the above Formulations 1-8, respectively. […]

## human interleukin-2 [human IL-2]
[1]
  Level of promoting cell proliferation: −

B1: human interleukin-3 (protein, UniProt P08700 20-152, looked up)
Interleukin-3: APMTQTTPLKTSWVNCSNMIDEIITHLKQPPLPLLDFNNLNGEDQDILMENNLRRPNLEAFNRAVKSLQNASAIESILKNLLPCLPLATAAPTRHPIHIKDGDWNEFRRKLTFYLKTLENAQAQQTTLSLAIF
notes: cytokine additive from Sino Biological
[2]
  proliferation-promoting effect of the factor (omission from No. 1 medium): significantly promote the proliferation
[3]; five concentrations tested
  concentration at which the cell proliferation effect is most significant: 51 ng/mL
[3]; samples A23065, A17112, factor added back to formulation lacking it
  proliferation-promoting effect of the factor: significant proliferation-promoting effect
[1]
  Level of promoting cell proliferation: +
